Acid dissociation constant (pKa) data for 1 compound are collected here from patent US4154967A, “Process for preparation of phenols” (Mitsui Petrochemical Industries, Ltd., priority 1976, dated 1979).

The conditions of this data set: 25° C., 96% ethanol made up with carbonate-free water; 0.01 to 0.05 M; about 20, 40 or 60% neutralized.

Structures are written as SMILES. This is a selection: effects in other tests are not listed, and their absence says nothing.

Turning to `O=[N+]([O-])c1cc([N+](=O)[O-])c(S)c([N+](=O)[O-])c1`, the acid dissociation constant (pKa) was found to be 3.2.
